Assays:
[1] = tested on: C57BL6/J/129S5 hybrid male mice; assay: Mouse study: testes size and histology after daily i.p. JQ1; conditions: 50 mg/kg/day i.p.
Procedure: (§1) The subsequent mixture was injected intraperitoneal into male mice at 1% of the body weight of the mouse (final amount is 50 mg/kg/day). The control was DMSO dissolved 1:10 in (2-Hydroxypropyl)-β-cyclodextrin and injected similarly. […] These studies were approved by the Administrative Committee on Laboratory Animal Care at Baylor College of Medicine, and all experiments were conducted in accordance with the NIH guide for the Care and Use of Laboratory Animals.

[2] = tested on: C57BL6/J/129S5 hybrid male mice
Procedure: as §1

[3] = tested on: C57BL6/J/129S5 hybrid male mice; assay: Male fertility, fertilization and embryo developmental potential
Procedure: Oocytes from these females were collected from their oviductal ampulla and cultured for 2 days to determine their developmental potential post-mating (FIG. 6B).
as §1

[4] = tested on: mouse testes spermatogenesis genes; conditions: males treated 6-12 weeks of age

Compound: Cc1sc2c(c1C)C(c1ccc(Cl)cc1)=NC(CC(=O)OC(C)(C)C)c1nnc(C)n1-2 (racemic) [JQ1, tert-Butyl 2-(4-(4-chlorophenyl)-2,3,9-trimethyl-6H-thieno[3,2-f][1,2,4]triazolo[4,3-a][1,4]diazepin-6-yl)acetate]
- testes volumes, reduction to % of control ([1]; treated for 6 weeks (6-12 weeks of age)): 40.6 % of the controls
- testes volumes, reduction to % of control ([1]; treated from 3-6 weeks of age): 75.4 % of control
- testes volumes, reduction to % of control ([1]; treated from 6-9 weeks of age): 54.7 % of controls
- epididymal sperm number, % of control ([2]; 50 mg/kg/day i.p., after 3 weeks of treatment, entire epididymis): 27.8 % of the control
- sperm in the cauda epididymis, % of control ([2]; 50 mg/kg/day i.p., after 6 weeks of treatment): 10.9 % of the control
- spermatozoa with progressive motility ([2]; cauda epididymis sperm, control 85%): 5%
- oocytes developed into 4 cell embryos ([3]; females mated to males treated 5 weeks, control 70.1%): 6.6%
- oocytes developed into 2 cell embryos ([3]; females mated to males treated 5 weeks, control 72.8%): 10.1%
- pups per litter after cessation ([3]; within the first month following cessation of JQ1): 7.25+/−0.58 pups per litter
- Hist1h1t mRNA downregulation [4]: 2.6 fold
- Plzf mRNA enrichment in testes versus control [4]: 2.0 fold
- Stra8 mRNA enrichment in testes versus control [4]: 1.3 fold

— patent US9301962B2, “Male contraceptive compositions and methods of use” (Baylor College of Medicine, priority 2010, dated 2016)
